Reference: PMC8274477 (Frontiers in Cell and Developmental Biology, 2021)

Biological target: T1, OTULIN (OTU deubiquitinase with linear linkage specificity, FAM105B), His-tagged, biotin-labelled (human, biotin (label; sites not stated))
T1 construct: OTULIN (FAM105B), cDNA in pET28a; also called HIS-OTULIN; source: E. coli BL21 (DE3), purified (His-tag Purification Resin), labelled with biotin; not shown: His6, N-terminal, kept
Experiment: peptide or protein array; HuProt human proteome microarray; 5 ug/5 ml biotin-labelled LUBAC or OTULIN in solution, 1 h at room temperature; Cy5-streptavidin, scanned at 635 nm; BSA as negative control; hits: Z-score >= 3 and I_(Mean_Ratio) >= 1.4
Settings: both partners purified

B1: FAM103A1 (natural protein, human, UniProt Q9BTL3 1-118, looked up)
chain: MTDTAEAVPKFEEMFASRFTENDKEYQEYLKRPPESPPIVEEWNSRAGGNQRNRGNRLQDNRQFRGRDNRWGWPSDNRSNQWHGRSWGNNYPQHRQEPYYPQQYGHYGYNQRPPYGYY
notes: FAM103A1; protein on the human proteome microarray; source: spotted on the HuProt human proteome microarray
B1: binds.
